Measured values reported in ChEMBL document CHEMBL1145714, “Activity of Parthenolide at 5HT2A receptors” (J Nat Prod, 1997).

Sequences of proteins named here, by UniProt entry; tags and fusion partners are left off.
UniProt P14842, whole entry: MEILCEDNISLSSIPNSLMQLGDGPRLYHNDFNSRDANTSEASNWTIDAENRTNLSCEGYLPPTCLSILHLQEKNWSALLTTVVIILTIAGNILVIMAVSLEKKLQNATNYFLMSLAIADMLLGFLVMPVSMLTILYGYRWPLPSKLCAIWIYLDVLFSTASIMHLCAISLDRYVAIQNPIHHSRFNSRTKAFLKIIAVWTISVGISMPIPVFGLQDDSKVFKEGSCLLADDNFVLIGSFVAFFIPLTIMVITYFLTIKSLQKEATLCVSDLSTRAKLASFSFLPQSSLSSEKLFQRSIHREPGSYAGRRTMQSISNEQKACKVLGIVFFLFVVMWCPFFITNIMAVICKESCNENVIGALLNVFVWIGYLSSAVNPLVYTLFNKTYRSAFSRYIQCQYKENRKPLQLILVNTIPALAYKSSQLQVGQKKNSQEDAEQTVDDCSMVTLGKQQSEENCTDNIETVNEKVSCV

Target: 5-hydroxytryptamine receptor 2A (Rattus norvegicus, UniProt P14842)
Assay: Displacement of [3H]ketanserin from rat 5HT2A receptor expressed in mouse NIH3T3 cells
Format: cell-based

Question: For `O=C(CCCN1CCC2(CC1)C(=O)NCN2c1ccccc1)c1ccc(F)cc1` [SPIPERONE], which Ki is on record?
Answer: 1 nM
